Source: PMC3176149, “Application of Celluspots peptide arrays for the analysis of the binding specificity of epigenetic reading domains to modified histone tails” (BMC Biochemistry, 2011)
“Also recorded” adds a separate entry of the source.

Experiments:
[1] = test system: JMJD2A double Tudor domain (residues 856-1047); experiment: Binding of GST-fused JMJD2A double Tudor domain to modified histone peptides on Celluspots peptide arrays; design: species or system human; details: JMJD2A double Tudor GST fusion 10 nM, room temperature, 2 hours, interaction buffer pH 7.5, ECL, tested at least two times
Procedure: In the present study, the binding specificities of seven known reading domains were analyzed using Celluspots peptide arrays comprising 384 peptides from 8 different regions of the N-terminal histone tails, viz. H3 1-19, 7-26, 16-35 and 26-45, H4 1-19 and 11-30, H2A 1-19 and H2B 1-19. The arrays are commercially available from Active Motif and feature 59 post-translational modifications (most of them identified, some of them hypothetical) in many different combinations (Additional file 1). Binding of the GST fused reading domain proteins to peptide arrays was visualized using an anti-GST antibody, followed by a secondary anti-goat-HRP antibody and ECL detection system. […] In case of weak signals, the experiment was repeated with higher protein concentration. In case of an overexposed image, the protein concentration was reduced. For quality control, each glass slide contains two identical copies of the array. […] The sequences encoding human HP1ß full length (residues 1-185), the Chromo domain of human MPP8 (residues 58-112), the double Tudor domain of human JMJ[…] (residues 856-1047), the tandem Tudor domain of human 53BP1 (residues 1490-1608), the PHD finger of human Rag2 (residues 311-520) and the second Bromo domain of human BRD2 (residues 348-455) were amplified from cDNA derived from HEK293 cells and cloned as GST fusion proteins into the pGEX-6P-2 vector (GE Healthcare).

[2] = test system: Rag2 PHD finger (residues 311-520); experiment: Binding of GST-fused Rag2 PHD finger to modified histone peptides on Celluspots peptide arrays; design: species or system human; details: Rag2 PHD finger GST fusion 2 nM, room temperature, 2 hours, interaction buffer pH 7.5, ECL, tested at least two times
Procedure: In the present study, the binding specificities of seven known reading domains were analyzed using Celluspots peptide arrays comprising 384 peptides from 8 different regions of the N-terminal histone tails, viz. H3 1-19, 7-26, 16-35 and 26-45, H4 1-19 and 11-30, H2A 1-19 and H2B 1-19. The arrays are commercially available from Active Motif and feature 59 post-translational modifications (most of them identified, some of them hypothetical) in many different combinations (Additional file 1). Binding of the GST fused reading domain proteins to peptide arrays was visualized using an anti-GST antibody, followed by a secondary anti-goat-HRP antibody and ECL detection system. The domains were selected to represent the different folds of reading domains and show a wide range of specificities. […] Each reading domain was tested at least two times on the peptide arrays to ensure that the results are reliable. In case of weak signals, the experiment was repeated with higher protein concentration. In case of an overexposed image, the protein concentration was reduced. For quality control, each glass slide contains two identical copies of the array. The binding intensities for each tested reading domain were analyzed with the Array Analyze program, which calculates the average of the binding intensities to corresponding peptide spots in both copies of the array and prepares a graphical output - one scatter plot illustrating the binding intensities observed at corresponding spots in both copies of the array and a bar diagram showing the distribution of deviations of the binding intensities to the corresponding spots. […] The sequences encoding human HP1ß full length (residues 1-185), the Chromo domain of human MPP8 (residues 58-112), the double Tudor domain of human JMJ[…] […] Protein concentration was determined by UV spectroscopy. […] Similar results were observed here with reading domains. […]

[3] = test system: JMJD2A double Tudor domain; details: ref [14],[17],[18]; cited from earlier work
Source text: The Tudor domain folds into a ß-sandwich flanked by one α-helix.

[4] = test system: 53BP1 tandem Tudor domain; details: ref [14],[15]; cited from earlier work
Source text: The Tudor domain folds into a ß-sandwich flanked by one α-helix. […] Indeed, all H4K20me2 modified peptides (the main target reported for the tandem Tudor domain of 53BP1 [14]) were specifically recognized by the 53BP1 tandem Tudor domain on the peptide array (Figure 5B).

[5] = test system: 53BP1 tandem Tudor domain (residues 1490-1608); experiment: Binding of GST-fused 53BP1 tandem Tudor domain to modified histone peptides on Celluspots peptide arrays; design: species or system human; details: 53BP1 tandem Tudor GST fusion 1 μM, room temperature, 2 hours, interaction buffer pH 7.5, ECL, tested at least two times
Procedure: In the present study, the binding specificities of seven known reading domains were analyzed using Celluspots peptide arrays comprising 384 peptides from 8 different regions of the N-terminal histone tails, viz. H3 1-19, 7-26, 16-35 and 26-45, H4 1-19 and 11-30, H2A 1-19 and H2B 1-19. The arrays are commercially available from Active Motif and feature 59 post-translational modifications (most of them identified, some of them hypothetical) in many different combinations (Additional file 1). Binding of the GST fused reading domain proteins to peptide arrays was visualized using an anti-GST antibody, followed by a secondary anti-goat-HRP antibody and ECL detection system. The domains were selected to represent the different folds of reading domains and show a wide range of specificities. […] Each reading domain was tested at least two times on the peptide arrays to ensure that the results are reliable. […] The binding intensities for each tested reading domain were analyzed with the Array Analyze program, which calculates the average of the binding intensities to corresponding peptide spots in both copies of the array and prepares a graphical output - one scatter plot illustrating the binding intensities observed at corresponding spots in both copies of the array and a bar diagram showing the distribution of deviations of the binding intensities to the corresponding spots. […]

[6] = test system: Rag2 PHD finger; details: ref [20]; cited from earlier work
Source text: These binding modules are about 50 amino acids long and contain two binding sites for zinc ions.

[7] = biological target: T1, MPP8 Chromo domain (Homo sapiens, UniProt Q99549); experiment: Peptide binding of MPP8 Chromo domain in solution by fluorescence depolarization; details: purified FITC-coupled peptides
T1 construct: the Chromo domain of human MPP8 (residues 58-112); made in house
T1 sequence (Q99549 58-112): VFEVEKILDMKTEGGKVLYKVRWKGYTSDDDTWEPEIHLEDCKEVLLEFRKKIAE
Source text: The sequences encoding human HP1ß full length (residues 1-185), the Chromo domain of human MPP8 (residues 58-112), the double Tudor domain of human JMJ[…] (residues 856-1047), the tandem Tudor domain of human 53BP1 (residues 1490-1608), the PHD finger of human Rag2 (residues 311-520) and the second Bromo domain of human BRD2 (residues 348-455) were amplified from cDNA derived from HEK293 cells and cloned as GST fusion proteins into the pGEX-6P-2 vector (GE Healthcare).

Substance: H3K4me2: H3K4me2 modified histone tail peptide on Celluspots array
- binding to modified histone tail peptides (array signal) [1]: not detectable
- binding to modified histone tail peptides (array signal) [2]: greatly reduced
- binding to JMJD2A double Tudor domain (literature) [3]: weaker affinity; also recorded: reported to bind
- interaction with 53BP1 tandem Tudor domain (literature) [4]: reported to interact
- binding to modified histone tail peptides (array signal) [5]: not observed on the peptide array

Substance: H3K4me3: H3K4me3 modified histone tail peptide on Celluspots array
- interaction with Rag2 PHD finger (literature) [6]: reported to interact with H3K4me3; also recorded: interacts with H3K4me3
- binding to modified histone tail peptides (array signal) [1]: very weak
- binding to modified histone tail peptides (array signal) [2]: strongest signal
- binding to JMJD2A double Tudor domain (literature) [3]: weaker affinity; also recorded: reported to bind

Substance: H3K4me1: H3K4me1 modified histone tail peptide on Celluspots array
- binding to modified histone tail peptides (array signal) [2]: almost no binding signal

Substance: H3K9me3-S10ph: double modified H3 peptide, FITC-coupled, amino acids 1-19
- Kd ([7]; fluorescence depolarization in solution, amino acids 1-19, fit to binary binding equilibrium, read-out: Binding constant): > 50 µM
- binding in solution (in words) ([7]; fluorescence depolarization, amino acids 1-19): Loss of binding
